{"source": "patent US10905706B2", "about": "“Compositions and methods to accelerate resolution of acute lung inflammation” (The Johns Hopkins University, priority 2015, dated 2021)", "key": {"[1]": {"tested_on": "global DNA methylation in Tregs", "test": "Global DNA methylation in cultured Tregs", "settings": "100 nM DAC, 48 hours, vs vehicle"}, "[2]": {"tested_on": "CD4+ CD25− cells (conventional T cells)", "test": "Lymphocyte culture with DAC, FACS phenotype of conventional T cells", "settings": "48 h culture, anti-CD3/CD28, IL-2; DAC 10 or 100 nM"}}, "data": [{"compound": "Nc1ncn([C@H]2C[C@H](O)[C@@H](CO)O2)c(=O)n1", "note": "[DAC, 5-aza-2′-deoxycytidine]", "values": [{"measurement": "proportion of methylated DNA (relative to methylated control DNA)", "setting": "[1]", "value": "significant decrease"}, {"measurement": "Foxp3 expression in conventional T cells", "setting": "[2]", "value": "induced Foxp3 expression"}]}]}
